Literature values, collected in patent publication US9333241B2, “Thyroid-stimulating hormone receptor polypeptide agonist glycoforms to treat metabolic syndrome” (LipoLytics Therapeutics, LLC, priority 2005, dated 2016).

Sequences of proteins named here, by UniProt entry; tags and fusion partners are left off. Residues count along the entry.
UniProt P16473, 21-764: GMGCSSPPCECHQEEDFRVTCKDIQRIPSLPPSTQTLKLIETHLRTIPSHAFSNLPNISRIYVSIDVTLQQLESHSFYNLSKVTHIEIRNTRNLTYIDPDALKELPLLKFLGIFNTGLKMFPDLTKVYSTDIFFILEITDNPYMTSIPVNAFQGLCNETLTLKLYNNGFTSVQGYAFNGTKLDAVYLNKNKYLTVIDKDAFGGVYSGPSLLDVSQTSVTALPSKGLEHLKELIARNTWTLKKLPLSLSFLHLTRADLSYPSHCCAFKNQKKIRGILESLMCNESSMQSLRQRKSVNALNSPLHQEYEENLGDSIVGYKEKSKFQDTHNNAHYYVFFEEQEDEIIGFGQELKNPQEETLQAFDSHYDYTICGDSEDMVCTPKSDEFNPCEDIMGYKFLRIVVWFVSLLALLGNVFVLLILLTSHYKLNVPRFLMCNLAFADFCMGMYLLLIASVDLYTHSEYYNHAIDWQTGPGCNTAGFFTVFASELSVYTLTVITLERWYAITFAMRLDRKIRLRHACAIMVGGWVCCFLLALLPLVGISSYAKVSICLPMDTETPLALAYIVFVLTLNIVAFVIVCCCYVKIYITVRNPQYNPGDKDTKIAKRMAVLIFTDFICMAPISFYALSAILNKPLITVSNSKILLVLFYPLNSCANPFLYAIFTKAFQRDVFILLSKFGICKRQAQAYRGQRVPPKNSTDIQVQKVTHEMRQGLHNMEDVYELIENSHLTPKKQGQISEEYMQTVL

Legend:
[1] = relative to sialylated TSH
[2] = tested on: rodent models of the metabolic syndrome; settings: recombinant glycoproteins produced in CHO cells
[3] = target: thyroid TSHR (Homo sapiens, UniProt P16473); settings: relative to non-sialylated glycoforms

Substance: Asialylated TSH: homogenous, desialylated TSH prepared from rhTSH with neuraminidase
- clearance from serum, faster than sialylated TSH [1]: 10-100 fold

Substance: TSH: thyroid-stimulating hormone produced by recombinant DNA methods in CHO cells
- effect of treatment in rodents [2]: improved glucose and lipid profiles and in reversed liver steatosis

Substance: rhTSH: Recombinant human TSH (Thyrogen®, Genzyme Corporation)
- mean apparent elimination half-life (humans): 25 ± 10 h
- metabolic clearance rate (MCR) compared with human pituitary-derived TSH (humans): much lower
- time serum concentrations are significantly elevated after injection (single injection of approximately 30 μg/kg in human subjects): up to 24 hours

Substance: sialylated forms of TSH: TSH glycoforms having terminal sialic acid
- intrinsic activity (in vitro activity), lower than non-sialylated glycoforms [3]: 4-20 fold
